Values quoted from earlier work in patent US11090322B2, “Anthracycline disulfide intermediates, antibody-drug conjugates and methods” (priority 2014, dated 2021).

System: MMTV-HER2 Fo5 transgenic mammary tumors
Details: allograft propagated from the Fo5 mmtv transgenic mouse; cited from earlier work

## HERCEPTIN: humanized anti-HER2 antibody huMAb4D5-8, trastuzumab, tradename HERCEPTIN
  response of Fo5 allograft to therapy: does not respond to, or responds poorly to
